{"sequences": {"note": "Protein sequences, listed by entry. Tags and fused reporters are not part of them.", "UniProt Q8TDV5, whole entry": "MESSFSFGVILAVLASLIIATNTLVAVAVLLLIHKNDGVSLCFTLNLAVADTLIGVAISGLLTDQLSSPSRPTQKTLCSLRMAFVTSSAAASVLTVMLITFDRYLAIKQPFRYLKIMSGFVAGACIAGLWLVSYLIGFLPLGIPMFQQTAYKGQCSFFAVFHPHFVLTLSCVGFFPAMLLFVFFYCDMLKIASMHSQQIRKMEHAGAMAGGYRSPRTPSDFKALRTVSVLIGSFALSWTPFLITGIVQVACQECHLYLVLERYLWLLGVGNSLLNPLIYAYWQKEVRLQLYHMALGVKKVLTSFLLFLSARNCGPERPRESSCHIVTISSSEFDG"}, "source": "patent US20130096141A1", "about": "“BICYCLIC HETEROCYCLE DERIVATIVES AND METHODS OF USE THEREOF” (priority 2010, published 2013)", "biological_target": "GPR119 receptor (Homo sapiens, UniProt Q8TDV5)", "test": "cAMP assay in cells transfected with the GPR119 receptor (human)", "details": "read-out: h-cAMP EC50, increase in intracellular cAMP", "method": "The activity of these compounds may be assayed in cells transfected the GPR119 receptor (human, mouse, rat or monkey). Incubation with the above compounds results in an increase in intracellular cAMP, from which an EC50 value may be calculated. Ki values for compounds at this receptor can be determined by employing a radio-labeled agonist. In vivo activity can be determined by conducting an oral glucose-tolerance test in an appropriate species, such as mouse.", "data": [{"smiles": "Cn1cc(-c2ccc(C#N)cc2Cl)c2ncnc(OC3C4COCC3CN(C(=O)OC3(C)CC3)C4)c21", "note": "(stereo not shown)", "values": [{"measurement": "EC50", "result": 3.2, "unit": "nM"}]}]}
